PDI inh: inhibitors of human protein disulfide isomerase; inhibition, % at 10 µM; PDI insulin aggregation turbidity, A650, 90 min; AID 588391; P07237; 0.052% of 350,000 active;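 active = mean inhibition across replicates of 30% or more, whatever share of single replicates reach that level; inconclusive = mean inhibition below 30% while every single replicate reaches 30%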
FGF22 binding: binders of recombinant human FGF22 by thermal shift; activity (Tm shift, normalised), % at 9.99 µM; SYPRO orange fluorescence; percent of sucrose octasulfate shift, DMSO zero; 1.5% of 340,000 active;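 active = mean Tm shift, scaled 0 neutral to 100 positive control, at about 1.3% or above, every replicate too, limit read from the data; inconclusive = no clear call, values can overlap the other calls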
ARNT TACC3 PPI: disruptors of human ARNT/TACC3 interaction | Q9Y6A5 | AlphaScreen His-ARNT PAS-B/GST-TACC3 binding, luminescence; TACC3 fragment carries E629A point mutation | inhibition, % at 9.99 µM | 0.66% of 390,000 active;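 active = mean inhibition of replicates at least 50% and at least half of replicates each reaching 50%; inconclusive = half or more replicates reach 50% but mean below 50%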;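 note: 0% = complete ARNT plus TACC3 wells and 100% = ARNT alone without TACC3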
ERp5 inh: inhibitors of human ERp5. Q15084. ERp5 insulin aggregation, absorbance 650 nm, 90 min. 0.05% of 350,000 active. inhibition, % at 9.99 µM;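 active = mean replicate inhibition above about 25%, with every replicate also reaching it, limit read from the data, passing the limit was not always enough; inconclusive = only one of those two criteria met; inactive = neither criterion met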
PglD DTNB: inhibitors of Campylobacter jejuni PglD acetyltransferase; inhibition, % at 12.5 µM; purified PglD enzyme, DTNB colorimetric CoA detection; 0.098% of 360,000 active; in the data active = inhibition above about 16%, passing the limit was not always enough; inconclusive = no clear call, values can overlap the other calls
Yeast UUG start: modulators of yeast start codon fidelity, primary screen, whole organism, S. cerevisiae, single point, plate reader; activity score, % at 18.7 µM; actives 0.13% (n = 350,000); S. cerevisiae UUG-firefly luciferase reporter, luminescence/redox ratio;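 active = replicate mean at a twofold rise or more, about +100% in these data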;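 also: firefly luciferase made from a UUG start codon reports start codon fidelity; reporter light over untreated wells divided by growth signal over untreated wells; some hits fall short of that in this replicate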
Active calls of the source: *; ? = inconclusive; · = not tested or not shown. This is a sample that favours compounds with a hit; in the whole collection about 1.9% have one here.

#1 Cc1ccc2nc(Cl)c(C#N)cc2c1
#2 CCCCCCC12Cc3cc(OC)c(OC)cc3C(O1)c1c(cc(C)oc1=O)O2 (stereo not given)
#3 CCCCCCC12Cc3cc(OC)c(OC)cc3C(O1)C1=C(O2)C(C)(C)CCC1=O (stereo not given)
#4 CC(C)(C)S(=O)N1Cc2cc(C(=O)O)nc(-c3cccc(-c4cccc(F)c4)c3)c2[C@H]1CCO (stereo not given in full)
#5 COc1cc2c(cc1OC)[C@@]13ON=C(c4ccc(OCCO)cc4)[C@@H]1CCN3CC2
Assay by compound	1	2	3	4	5
PDI inh	-7	·	·	·	·
FGF22 binding	43*	0	43*	1	0
ARNT TACC3 PPI	1	·	·	1	·
ERp5 inh	-1	-1	3	-3	-8
PglD DTNB	·	·	·	6	·
Yeast UUG start	·	·	·	·	·

#6 COc1ccc(NC(=O)Nc2ccc3c(c2)[C@@H]2C[C@@H](CC(=O)NCc4ccc5c(c4)OCO5)O[C@H](CO)[C@@H]2O3)cc1
#7 C[C@H](CO)N1C[C@H](C)[C@H](CN(C)S(=O)(=O)c2cn(C)cn2)Oc2ccc(NC(=O)Cc3cn(C)c4ccccc34)cc2C1=O
#8 Cc1c(C)[n+](=O)c2c(n1[O-])CCC2
#9 CCc1c(C)n([O-])c2c([n+]1=O)CCC2
#10 C[C@@H]1CN([C@H](C)CO)S(=O)(=O)c2ccc(C3=CCCC3)cc2O[C@H]1CN(C)C(=O)C1CCCCC1
Assay by compound	6	7	8	9	10
PDI inh	·	·	-1	46*	·
FGF22 binding	0	0	·	·	0
ARNT TACC3 PPI	-9	-8	-7	1	2
ERp5 inh	0	-1	·	·	-5
PglD DTNB	0	6	-8	-1	4
Yeast UUG start	4	11	-20	-20	1

#11 C=CCOC(=O)[C@@]12O[C@]3(COC[C@H](c4ccccc4)N3C1=O)[C@@H]1C(=O)N(c3ccccc3)C(=O)[C@@H]12
#12 O=C(O)c1cccc(OCCN2CCCC2=O)c1
#13 CN1CCC(=O)N(CCOc2ccccc2)CC1
#14 COc1cccc(CNC(=O)C[C@H]2CC[C@H]3[C@H](COc4ccc(NC(C)=O)cc4C(=O)N3C)O2)c1
#15 O=C(c1ccc(F)cc1)N1CCCCN2[C@@H](CO)[C@H](c3ccc(-c4ccc(F)cc4)cc3)[C@@H]2C1
Assay by compound	11	12	13	14	15
PDI inh	·	-5	5	·	·
FGF22 binding	0	0	0	0	0
ARNT TACC3 PPI	·	-2	60*	0	10
ERp5 inh	7	1	8	·	4
PglD DTNB	·	6	-2	-8	1
Yeast UUG start	·	-11	0	0	-9

#16 Cc1ccccc1-n1c(=S)[nH]c2nc3c(cc2c1=O)CCCC3
#17 Cc1ccccc1-n1c(=S)[nH]c2nc3c(cc2c1=O)COC(C)(C)C3
#18 O=C(O)C1C2C=CC(C2)C1C(=O)NC(c1ccccc1)c1ccccc1 (stereo not given)
#19 COc1ccc(C(NC(=O)C2C3C=CC(C3)C2C(=O)O)c2ccccc2)cc1 (stereo not given)
#20 COc1cc(/C=N/NC(=O)CC#N)cc(Br)c1O
Assay by compound	16	17	18	19	20
PDI inh	-1	4	0	3	0
FGF22 binding	43*	0	·	52*	0
ARNT TACC3 PPI	5	-7	-11	-10	58*
ERp5 inh	6	4	·	5	-8
PglD DTNB	·	·	3	·	·
Yeast UUG start	·	·	6	·	·

Fetched by compound from the list above, 3 records:
#17 Cc1ccccc1-n1c(=S)[nH]c2nc3c(cc2c1=O)COC(C)(C)C3
#15 O=C(c1ccc(F)cc1)N1CCCCN2[C@@H](CO)[C@H](c3ccc(-c4ccc(F)cc4)cc3)[C@@H]2C1
#6 COc1ccc(NC(=O)Nc2ccc3c(c2)[C@@H]2C[C@@H](CC(=O)NCc4ccc5c(c4)OCO5)O[C@H](CO)[C@@H]2O3)cc1
Assay by compound	17	15	6
PDI inh	4	·	·
FGF22 binding	0	0	0
ARNT TACC3 PPI	-7	10	-9
ERp5 inh	4	4	0
PglD DTNB	·	1	0
Yeast UUG start	·	-9	4

Further results:
#21 CCOc1cc(/C=N/NC(=O)C(=O)NC2CC2)cc(Br)c1O
#22 CCOc1cc(/C=N/NC(=O)C(N)=O)cc(Br)c1O
#23 CC(C)NC(=O)N(C)C[C@H]1Oc2ccc(NC(=O)CCN3CCOCC3)cc2CC(=O)N([C@@H](C)CO)C[C@H]1C
#24 CCOc1ccc(CCN2C(=O)C(=O)N([C@@H](CC(C)C)CN3CCC[C@H]3CN3C(=O)C(=O)NC[C@@H]3CC(C)C)C[C@@H]2Cc2ccc(O)cc2)cc1
#25 O=C1NC[C@H](Cc2ccccc2)N(C[C@H]2CCCN2C[C@H](Cc2ccc(O)cc2)N2C[C@H](Cc3ccc(O)cc3)N(CC3CCCCCC3)C(=O)C2=O)C1=O
Assay by compound	21	22	23	24	25
PDI inh	-4	-6	·	·	39*
FGF22 binding	0	43*	0	0	0
ARNT TACC3 PPI	-7	·	4	·	-3
ERp5 inh	1	-6	2	0	1
PglD DTNB	-9	·	0	·	-2
Yeast UUG start	-15	·	18	·	-6

#26 CCOc1ccc(CCN2C(=O)C(=O)N([C@@H](CC(C)C)CN3CCC[C@H]3CN3C(=O)C(=O)NC[C@@H]3Cc3ccc(O)cc3)C[C@@H]2Cc2ccccc2)cc1
#27 O=C1NC[C@H](Cc2ccccc2)N(C[C@H]2CCCN2C[C@H](Cc2ccccc2)N2C[C@H](Cc3ccc(O)cc3)N(CC3CCCCCC3)C(=O)C2=O)C1=O
#28 CCCN1C[C@H](C)[C@H](OC)CN(C)C(=O)c2ccc(NC(=O)Nc3c(C)noc3C)cc2OC[C@@H]1C
#29 C[C@@H]1CCCCO[C@@H](CN(C)C(=O)Nc2ccc(C(F)(F)F)cc2)[C@@H](C)CN([C@H](C)CO)C(=O)c2cc(NC(=O)Nc3ccc(C(F)(F)F)cc3)ccc2O1
#30 COc1ccc(C(C[N+](=O)[O-])c2c(C)[nH]n(-c3ccccc3)c2=O)cc1 (stereo not given)
Assay by compound	26	27	28	29	30
PDI inh	·	?	·	·	-27
FGF22 binding	43*	0	0	0	-1
ARNT TACC3 PPI	·	-2	-17	-28	72*
ERp5 inh	-2	-1	-3	·	2
PglD DTNB	·	-3	0	-6	-2
Yeast UUG start	·	-10	4	-11	-8

#31 Cc1[nH]n(-c2ccccc2)c(=O)c1C(C[N+](=O)[O-])c1ccccc1Cl (stereo not given)
#32 O=C(Nc1ccc([N+](=O)[O-])c(NC(=O)c2cccnc2)c1)c1cccnc1
#33 O=C(Nc1cc2c(cc1[N+](=O)[O-])OCCO2)c1cccnc1
#34 COc1ccc(-c2csc(NC(=O)C3CCN(C(=O)c4ccc(F)cc4)CC3)n2)cc1OC
#35 Cc1ccc(S(=O)(=O)NCC(=O)OCC(=O)N2CC(=O)Nc3ccccc32)cc1
Assay by compound	31	32	33	34	35
PDI inh	-2	-2	-64	1	-5
FGF22 binding	·	0	43*	0	0
ARNT TACC3 PPI	33	-7	·	0	-2
ERp5 inh	·	3	-2	29*	-12
PglD DTNB	0	-33	-2	6	-2
Yeast UUG start	-2	-22	-6	23	-16

#36 O=C1CN(C(=O)COC(=O)/C=C/c2ccc(S(=O)(=O)N3CCOCC3)cc2)c2ccccc2N1
#37 O=C1CN(C(=O)COC(=O)c2cc(S(=O)(=O)N3CCOCC3)ccc2Cl)c2ccccc2N1
#38 O=C1CN(C(=O)COC(=O)CNS(=O)(=O)c2ccccc2)c2ccccc2N1
#39 CO[C@@H]1CN(C)C(=O)c2ccc(NC(=O)c3ccno3)cc2OC[C@H](C)NC[C@H]1C
#40 Cc1ccc2cccc(S(=O)(=O)N3CCCc4ccccc43)c2n1
#41 Cc1ccc(S(=O)(=O)N2CCCc3ccccc32)cc1
#42 CCOC(=O)N1CCN(C(=O)CSc2nnc(Cc3ccccc3)o2)CC1
#43 O=C(C[C@H]1C[C@@H]2c3cc(NC(=O)NC4CCCC4)ccc3O[C@@H]2[C@H](CO)O1)NCc1cccnc1
Assay by compound	36	37	38	39	40	41	42	43
PDI inh	-4	4	1	·	-5	10	·	·
FGF22 binding	42	43*	43*	·	43*	0	43*	0
ARNT TACC3 PPI	-3	3	-8	·	-5	·	·	·
ERp5 inh	2	0	-3	0	1	-5	2	6
PglD DTNB	·	1	·	·	-2	-2	6	·
Yeast UUG start	·	2	·	·	-17	-1	3	·
